We go through one compound from patent publication US20200138840A1, “PHARMACEUTICAL COMPOSITION AND TUMOR IMMUNOACTIVITY PROMOTER” (SENTAN Pharma inc., priority 2017, published 2020).

Molecules are shown by their SMILES.

This data set can be described thus: Side effects in Example 3: body weight, meals, blood glucose, serological profiles, liver weight. The format is in vivo, nude mice. The conditions noted are these: day 21; 2DG 100 mg/kg/day intraperitoneally every day. As for the experimental part: Nude mice subcutaneously transplanted with Huh-7 cells, prepared in the same manner as in Example 1, were divided in the following six groups.
(i) 2DG group: 100 mg/kg/day of the 100 mg/mL 2DG solution was administered into the jugular vein once a week.
(j) 2DG-PLGA group: 2DG-PLGA was administered into the jugular vein once a week.
(k) 2DG intraperitoneal injection group: 100 mg/kg/day of the 2DG solution was administered intraperitoneally every day.
(l) Sorafenib+PLGA group: 5 mg/kg/day of the sorafenib solution was administered orally every day, using a sonde, and PLGA was administered into the jugular vein once a week. […]
The dose of 2DG administered in the groups (i) and (k), which is 100 mg/kg/day, substantially corresponds to a single dose of 2DG per mouse (calculated based on an average body weight of 25 g) of about 2.5 mg. […]
In each of the groups, the tumor volume and the body weight of the mice were measured in the same manner as in Example 1, and the average amount of meals taken per day was calculated. The blood glucose level of the mice in the 2DG-PLGA group was measured on day 14 after the start of administration, in the same manner as in Example 1. Twenty-one days after the start of administration, the tumors were observed, and the serological profiles and the liver weight were measured, in the same manner as in Example 1.

For `O=CC[C@@H](O)[C@H](O)[C@H](O)CO` [2DG, 2-Deoxy-D-glucose], the Neutral fat was found to be 85.2 ± 37.5 mg/dL.
